This is an account of results in PMC9289666, “Highly Parallelized, Multicolor Optogenetic Recordings of Cellular Activity for Therapeutic Discovery Applications in Ion Channels and Disease-Associated Excitable Cells” (Frontiers in Molecular Neuroscience, 2022).

Sequences of proteins named here, by UniProt entry; tags and fusion partners are left off.
UniProt Q15858, whole entry: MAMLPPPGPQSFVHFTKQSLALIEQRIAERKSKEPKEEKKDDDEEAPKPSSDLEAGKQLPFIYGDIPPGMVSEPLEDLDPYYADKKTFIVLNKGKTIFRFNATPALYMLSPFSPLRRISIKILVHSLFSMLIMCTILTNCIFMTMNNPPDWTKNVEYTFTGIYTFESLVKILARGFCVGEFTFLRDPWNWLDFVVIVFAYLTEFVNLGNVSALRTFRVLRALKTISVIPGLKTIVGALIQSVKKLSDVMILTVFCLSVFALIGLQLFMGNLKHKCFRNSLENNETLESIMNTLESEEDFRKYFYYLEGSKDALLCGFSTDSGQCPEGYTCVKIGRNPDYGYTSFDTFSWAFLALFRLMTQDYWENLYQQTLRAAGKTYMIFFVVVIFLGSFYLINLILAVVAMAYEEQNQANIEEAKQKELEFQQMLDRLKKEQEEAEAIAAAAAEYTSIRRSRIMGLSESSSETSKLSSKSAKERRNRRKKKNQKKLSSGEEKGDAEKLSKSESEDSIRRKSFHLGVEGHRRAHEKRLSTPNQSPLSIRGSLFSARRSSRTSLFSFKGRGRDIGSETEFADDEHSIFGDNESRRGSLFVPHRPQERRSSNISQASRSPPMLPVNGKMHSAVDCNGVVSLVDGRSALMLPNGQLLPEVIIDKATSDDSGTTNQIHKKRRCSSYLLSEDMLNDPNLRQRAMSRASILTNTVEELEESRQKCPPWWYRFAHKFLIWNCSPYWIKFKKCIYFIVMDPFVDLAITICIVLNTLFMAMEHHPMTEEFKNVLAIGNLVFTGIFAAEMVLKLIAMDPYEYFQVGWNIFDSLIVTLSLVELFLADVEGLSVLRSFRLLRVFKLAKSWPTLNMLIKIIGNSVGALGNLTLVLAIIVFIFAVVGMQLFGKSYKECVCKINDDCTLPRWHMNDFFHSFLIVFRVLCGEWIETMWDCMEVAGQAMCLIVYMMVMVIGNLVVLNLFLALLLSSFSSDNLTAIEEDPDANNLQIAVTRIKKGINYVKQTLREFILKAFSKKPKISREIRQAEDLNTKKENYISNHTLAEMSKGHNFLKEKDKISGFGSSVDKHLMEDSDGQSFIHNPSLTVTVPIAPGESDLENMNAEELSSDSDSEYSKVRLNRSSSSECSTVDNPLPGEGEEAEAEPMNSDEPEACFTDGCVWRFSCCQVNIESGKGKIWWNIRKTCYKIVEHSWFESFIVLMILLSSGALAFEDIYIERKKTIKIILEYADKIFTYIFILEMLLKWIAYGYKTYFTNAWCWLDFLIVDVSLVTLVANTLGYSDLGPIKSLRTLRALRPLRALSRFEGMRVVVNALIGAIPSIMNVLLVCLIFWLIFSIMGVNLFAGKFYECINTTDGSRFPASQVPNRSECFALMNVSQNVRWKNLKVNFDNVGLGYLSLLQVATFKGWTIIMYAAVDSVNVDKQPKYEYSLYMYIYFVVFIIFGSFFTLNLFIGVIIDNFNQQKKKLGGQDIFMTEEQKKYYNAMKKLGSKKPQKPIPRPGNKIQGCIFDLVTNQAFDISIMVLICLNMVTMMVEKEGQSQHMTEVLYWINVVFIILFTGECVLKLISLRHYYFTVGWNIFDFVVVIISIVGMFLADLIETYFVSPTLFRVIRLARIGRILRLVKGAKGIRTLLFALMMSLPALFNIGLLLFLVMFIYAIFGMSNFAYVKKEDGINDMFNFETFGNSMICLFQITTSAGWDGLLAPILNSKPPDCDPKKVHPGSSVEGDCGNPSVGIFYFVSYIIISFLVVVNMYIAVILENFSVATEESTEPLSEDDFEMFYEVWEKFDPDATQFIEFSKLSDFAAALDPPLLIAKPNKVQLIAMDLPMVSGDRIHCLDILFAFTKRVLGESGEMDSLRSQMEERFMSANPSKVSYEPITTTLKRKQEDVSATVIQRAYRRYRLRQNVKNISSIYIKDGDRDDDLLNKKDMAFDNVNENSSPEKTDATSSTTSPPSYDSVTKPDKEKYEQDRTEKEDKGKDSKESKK
UniProt Q14524, whole entry: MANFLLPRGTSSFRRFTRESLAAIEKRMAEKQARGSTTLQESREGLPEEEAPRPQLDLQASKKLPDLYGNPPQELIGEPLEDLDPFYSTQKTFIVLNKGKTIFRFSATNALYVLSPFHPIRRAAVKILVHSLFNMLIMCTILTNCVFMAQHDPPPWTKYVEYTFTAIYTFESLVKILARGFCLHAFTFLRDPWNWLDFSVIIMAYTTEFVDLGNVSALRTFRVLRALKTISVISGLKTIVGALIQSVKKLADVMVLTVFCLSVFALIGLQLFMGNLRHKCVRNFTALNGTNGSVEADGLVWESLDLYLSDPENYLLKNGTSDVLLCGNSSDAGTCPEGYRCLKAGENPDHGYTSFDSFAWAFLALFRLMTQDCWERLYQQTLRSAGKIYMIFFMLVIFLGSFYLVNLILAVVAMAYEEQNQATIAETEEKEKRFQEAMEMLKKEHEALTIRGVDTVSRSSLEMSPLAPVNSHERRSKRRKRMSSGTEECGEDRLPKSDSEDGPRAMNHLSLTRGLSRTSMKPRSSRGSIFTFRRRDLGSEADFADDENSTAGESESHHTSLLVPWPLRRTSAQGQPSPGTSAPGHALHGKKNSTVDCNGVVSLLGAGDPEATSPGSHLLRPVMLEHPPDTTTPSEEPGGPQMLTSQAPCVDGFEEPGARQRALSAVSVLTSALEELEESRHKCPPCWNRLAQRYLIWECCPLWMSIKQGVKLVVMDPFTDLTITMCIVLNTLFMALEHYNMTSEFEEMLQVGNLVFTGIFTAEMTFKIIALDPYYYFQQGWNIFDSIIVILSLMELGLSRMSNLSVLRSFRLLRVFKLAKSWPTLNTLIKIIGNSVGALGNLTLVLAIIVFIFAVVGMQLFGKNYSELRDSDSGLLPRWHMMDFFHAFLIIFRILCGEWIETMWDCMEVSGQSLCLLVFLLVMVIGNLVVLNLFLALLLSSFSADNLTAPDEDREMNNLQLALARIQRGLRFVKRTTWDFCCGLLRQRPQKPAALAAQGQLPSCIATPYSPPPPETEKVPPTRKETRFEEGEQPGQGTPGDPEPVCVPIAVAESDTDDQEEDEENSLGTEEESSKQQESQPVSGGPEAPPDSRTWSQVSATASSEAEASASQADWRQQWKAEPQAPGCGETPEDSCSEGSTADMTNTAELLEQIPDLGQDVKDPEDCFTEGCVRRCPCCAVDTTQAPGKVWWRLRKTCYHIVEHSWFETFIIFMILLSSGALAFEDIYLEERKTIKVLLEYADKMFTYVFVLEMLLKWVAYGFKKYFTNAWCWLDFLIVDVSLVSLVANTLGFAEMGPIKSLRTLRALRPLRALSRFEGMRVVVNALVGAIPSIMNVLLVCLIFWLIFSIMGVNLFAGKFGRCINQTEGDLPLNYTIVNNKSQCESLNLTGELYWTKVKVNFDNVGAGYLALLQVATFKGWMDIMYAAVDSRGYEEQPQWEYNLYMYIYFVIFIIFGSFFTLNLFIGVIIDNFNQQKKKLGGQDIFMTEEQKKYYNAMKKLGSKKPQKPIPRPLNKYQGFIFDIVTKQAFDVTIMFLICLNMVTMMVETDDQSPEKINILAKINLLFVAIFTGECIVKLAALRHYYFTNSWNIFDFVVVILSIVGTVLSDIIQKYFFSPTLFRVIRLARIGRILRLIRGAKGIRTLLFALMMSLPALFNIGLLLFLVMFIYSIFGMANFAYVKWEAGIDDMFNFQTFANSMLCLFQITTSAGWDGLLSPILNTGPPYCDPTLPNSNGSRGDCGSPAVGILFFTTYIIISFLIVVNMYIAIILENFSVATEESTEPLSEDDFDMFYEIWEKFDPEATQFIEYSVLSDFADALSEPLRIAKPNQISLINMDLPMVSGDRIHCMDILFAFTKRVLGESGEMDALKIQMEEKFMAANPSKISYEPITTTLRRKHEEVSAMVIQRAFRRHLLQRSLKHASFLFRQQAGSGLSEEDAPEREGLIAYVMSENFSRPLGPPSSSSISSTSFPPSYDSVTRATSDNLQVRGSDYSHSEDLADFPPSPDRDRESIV
UniProt Q99250, whole entry: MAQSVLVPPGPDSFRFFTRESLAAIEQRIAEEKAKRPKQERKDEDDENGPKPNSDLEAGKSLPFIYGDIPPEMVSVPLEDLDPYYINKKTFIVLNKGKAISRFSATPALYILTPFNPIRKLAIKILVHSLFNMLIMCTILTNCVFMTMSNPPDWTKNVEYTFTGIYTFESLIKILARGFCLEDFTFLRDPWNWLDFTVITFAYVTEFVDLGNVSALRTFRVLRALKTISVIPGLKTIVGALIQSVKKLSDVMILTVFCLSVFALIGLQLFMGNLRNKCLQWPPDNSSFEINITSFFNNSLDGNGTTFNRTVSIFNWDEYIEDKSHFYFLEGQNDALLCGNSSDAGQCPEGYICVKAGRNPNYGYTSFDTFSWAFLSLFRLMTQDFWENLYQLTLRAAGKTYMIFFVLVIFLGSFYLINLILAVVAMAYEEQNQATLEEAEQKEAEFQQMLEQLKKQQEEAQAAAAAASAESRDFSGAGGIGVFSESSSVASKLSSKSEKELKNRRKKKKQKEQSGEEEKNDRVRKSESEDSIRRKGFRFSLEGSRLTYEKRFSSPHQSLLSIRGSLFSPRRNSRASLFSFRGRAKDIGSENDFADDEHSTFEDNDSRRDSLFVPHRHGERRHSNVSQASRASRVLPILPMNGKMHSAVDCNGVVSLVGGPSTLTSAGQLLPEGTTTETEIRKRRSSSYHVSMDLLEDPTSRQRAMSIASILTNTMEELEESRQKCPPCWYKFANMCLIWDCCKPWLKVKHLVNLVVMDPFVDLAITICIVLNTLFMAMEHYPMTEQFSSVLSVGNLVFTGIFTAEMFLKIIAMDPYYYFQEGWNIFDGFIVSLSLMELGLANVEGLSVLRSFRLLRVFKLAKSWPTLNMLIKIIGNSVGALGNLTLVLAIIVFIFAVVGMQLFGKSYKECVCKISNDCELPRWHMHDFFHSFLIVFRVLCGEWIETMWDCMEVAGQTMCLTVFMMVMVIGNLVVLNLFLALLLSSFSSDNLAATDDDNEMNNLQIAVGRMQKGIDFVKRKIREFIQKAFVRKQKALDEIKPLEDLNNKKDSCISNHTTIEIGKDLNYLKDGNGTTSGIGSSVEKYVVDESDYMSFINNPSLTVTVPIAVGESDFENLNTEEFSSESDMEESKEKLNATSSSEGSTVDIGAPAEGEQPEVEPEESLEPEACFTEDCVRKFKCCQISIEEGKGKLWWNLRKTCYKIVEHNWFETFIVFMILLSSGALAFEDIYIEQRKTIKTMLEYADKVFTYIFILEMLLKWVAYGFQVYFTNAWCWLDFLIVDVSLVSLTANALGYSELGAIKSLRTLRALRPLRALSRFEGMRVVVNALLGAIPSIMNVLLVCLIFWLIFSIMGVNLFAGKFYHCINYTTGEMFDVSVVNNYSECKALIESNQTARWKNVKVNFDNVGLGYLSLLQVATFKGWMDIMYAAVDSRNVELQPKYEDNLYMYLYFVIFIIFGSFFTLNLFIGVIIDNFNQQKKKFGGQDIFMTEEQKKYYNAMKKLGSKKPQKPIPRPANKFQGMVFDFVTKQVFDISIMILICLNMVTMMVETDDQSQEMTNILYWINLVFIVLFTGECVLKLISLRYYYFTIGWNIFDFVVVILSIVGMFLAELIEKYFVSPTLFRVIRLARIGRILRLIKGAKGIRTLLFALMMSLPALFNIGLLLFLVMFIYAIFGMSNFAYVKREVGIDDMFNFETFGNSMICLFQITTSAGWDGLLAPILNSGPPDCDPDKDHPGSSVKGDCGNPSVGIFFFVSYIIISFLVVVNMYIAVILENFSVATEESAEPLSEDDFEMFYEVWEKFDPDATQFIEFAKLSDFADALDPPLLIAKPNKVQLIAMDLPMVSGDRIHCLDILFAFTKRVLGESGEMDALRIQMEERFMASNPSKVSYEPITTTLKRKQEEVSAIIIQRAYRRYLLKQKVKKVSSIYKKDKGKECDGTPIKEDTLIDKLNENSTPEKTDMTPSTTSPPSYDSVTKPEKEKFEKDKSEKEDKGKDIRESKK

The target of one data set is human Nav.1.7 (Homo sapiens, UniProt Q15858). Nature of the data set: Nav1.7 spiking HEK assay on Swarm.
In another data set the target is human Nav1.5 (Homo sapiens, UniProt Q14524).
Another data set has as its system Nav1.5. The following applies: read-out: Nav1.5 Ionworks (IC50); cited from earlier work.
The target of a further data set is T1, human Nav1.2 (Homo sapiens, UniProt Q99250).
T1 construct: expressed in transfected cells
Nature of the data set: Nav1.2 spiking HEK assay on Swarm. It counts as cell-based. As to conditions: 8 mM bath [K+]; mean spike areas under TP1, TP8, TP10.

On to `CSCC[C@@H]1NC(=O)CNC(=O)[C@H](CCC(=O)O)NC(=O)[C@@H]2CSSC[C@H](NC(=O)[C@H](Cc3ccc(O)cc3)NC(=O)[C@@H]3CCCN3C(=O)CN)C(=O)N[C@@H](CCC(N)=O)C(=O)N[C@@H](CCCCN)C(=O)N[C@@H](Cc3c[nH]c4ccccc34)C(=O)N[C@@H](CCSC)C(=O)N[C@@H](CCC(N)=O)C(=O)N[C@@H]([C@@H](C)O)C(=O)N[C@H]3CSSC[C@H](NC(=O)[C@H](C(C)C)NC1=O)C(=O)N[C@@H](CCCNC(=N)N)C(=O)N[C@@H](CC(C)C)C(=O)N[C@@H](Cc1c[nH]c4ccccc14)C(=O)N[C@H](C(=O)N[C@@H](CCCCN)C(=O)N[C@@H](CCCCN)C(=O)N[C@@H](CCCCN)C(=O)N[C@@H](CC(C)C)C(=O)N[C@@H](CC(C)C)C(=O)O)CSSC[C@H](NC(=O)[C@H](CCCCN)NC(=O)[C@H](CCCNC(=N)N)NC(=O)[C@H](CCC(=O)O)NC(=O)[C@H](CO)NC(=O)[C@H](CC(=O)O)NC3=O)C(=O)N2` [JNJ63955918], for which, at human Nav.1.7, the “State dependence (Kr/Ki)” value is given as “less than 10 fold” and the “State dependence (ratio of Nav1.7 IC50 at TP1 at 4 mM K+ over TP10 IC50 at 8 mM K+)” value was found to be 6.1. For the same molecule, at human Nav1.5, the IC50 was 6.26 µM. Consider `Cc1cc2c(s1)Nc1ccccc1N=C2N1CCN(C)CC1` [Olanzapine], for which the IC50 with Nav1.5 is 39 µM. For `CCN(CC)CC(=O)Nc1c(C)cccc1C` [Lidocaine], inhibition against human Nav1.2 was half-maximal at 47.2 µM (IC50).
